{"sequences": {"note": "Chains of the proteins cited; added tags and fusions are not shown. Residues count along the entry.", "UniProt P10827, 1-410 isoform 2": "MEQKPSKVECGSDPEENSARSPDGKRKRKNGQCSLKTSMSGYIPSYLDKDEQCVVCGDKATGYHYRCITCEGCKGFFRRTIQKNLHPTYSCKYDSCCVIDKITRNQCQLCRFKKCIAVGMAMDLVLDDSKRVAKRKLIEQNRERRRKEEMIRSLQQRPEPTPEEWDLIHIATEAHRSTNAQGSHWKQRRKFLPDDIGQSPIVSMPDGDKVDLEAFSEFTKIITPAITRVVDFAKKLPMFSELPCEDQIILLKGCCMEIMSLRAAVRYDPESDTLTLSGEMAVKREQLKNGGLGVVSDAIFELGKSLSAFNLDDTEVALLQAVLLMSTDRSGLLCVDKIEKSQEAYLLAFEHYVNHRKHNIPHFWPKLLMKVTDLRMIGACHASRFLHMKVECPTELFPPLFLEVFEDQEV", "UniProt P10828, whole entry": "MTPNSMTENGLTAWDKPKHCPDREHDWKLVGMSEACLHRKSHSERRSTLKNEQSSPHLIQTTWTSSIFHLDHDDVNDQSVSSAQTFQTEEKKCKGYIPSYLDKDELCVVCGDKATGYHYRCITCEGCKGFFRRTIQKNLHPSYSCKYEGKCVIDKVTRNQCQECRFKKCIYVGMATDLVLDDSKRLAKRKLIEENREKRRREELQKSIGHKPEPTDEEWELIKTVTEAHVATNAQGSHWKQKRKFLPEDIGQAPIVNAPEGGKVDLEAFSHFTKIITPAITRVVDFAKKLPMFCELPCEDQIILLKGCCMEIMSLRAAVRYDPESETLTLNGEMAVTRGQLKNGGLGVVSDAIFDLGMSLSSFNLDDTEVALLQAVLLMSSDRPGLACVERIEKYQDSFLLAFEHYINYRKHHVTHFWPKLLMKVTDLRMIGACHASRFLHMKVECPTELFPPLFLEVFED", "UniProt P19793, whole entry partner": "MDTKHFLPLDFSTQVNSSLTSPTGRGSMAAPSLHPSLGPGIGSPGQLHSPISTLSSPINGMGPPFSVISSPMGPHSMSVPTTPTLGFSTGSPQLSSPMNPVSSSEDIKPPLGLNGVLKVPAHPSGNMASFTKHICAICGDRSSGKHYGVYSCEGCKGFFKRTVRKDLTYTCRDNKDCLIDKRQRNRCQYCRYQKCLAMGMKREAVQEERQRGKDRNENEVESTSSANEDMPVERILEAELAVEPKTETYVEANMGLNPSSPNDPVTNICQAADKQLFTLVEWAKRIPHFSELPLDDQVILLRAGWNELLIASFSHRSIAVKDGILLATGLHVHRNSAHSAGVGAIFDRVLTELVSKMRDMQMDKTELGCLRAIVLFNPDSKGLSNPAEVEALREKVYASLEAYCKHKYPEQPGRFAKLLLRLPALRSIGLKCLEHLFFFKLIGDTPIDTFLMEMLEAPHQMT"}, "source": "patent US20090028925A1", "about": "“Novel Phosphinic Acid-Containing Thyromimetics” (priority 2005, published 2009)", "key": {"[1]": {"biological_target": "human thyroid hormone receptors TRα1 (Homo sapiens, UniProt P10827)", "test": "Receptor binding to TRα1 (gel filtration and scintillation proximity assay, labeled T3)", "conditions": "read-out: Ki TRα; SPA data"}, "[2]": {"biological_target": "human thyroid hormone receptors TRβ1 (Homo sapiens, UniProt P10828)", "test": "Receptor binding to TRβ1 (gel filtration and scintillation proximity assay, labeled T3)", "conditions": "read-out: Ki TRβ; SPA data"}}, "data": [{"smiles": "Cc1cc(C(=O)CP(=O)(O)O)cc(C)c1Cc1ccc(F)c(C(C)C)c1", "values": [{"measurement": "Ki", "setting": "[1]", "result": "> 2", "unit": "µM"}, {"measurement": "Ki", "setting": "[2]", "result": "> 2", "unit": "µM"}]}]}
